Structures are written as SMILES. Values joined by “and” are separate entries in the source; they are usually repeats but may differ in a detail not shown here. Equal values may be shown once.

Holding throughout (format): functional
Assay [1] can be described thus: Selectivity index (RD/EV71) of the compound.
A short description of assay [2]: Selectivity index (D551/EV71) of the compound.
Assay [3] can be described thus: Selectivity index (W138/EV71) of the compound.

As to `O=C1N(CCCCCOc2ccc(-c3ccc(Cl)cc3)cc2)CCN1c1ccncc1`, the Selectivity index in assay [1] is 104 and 250; in assay [2], 100 and 260; in assay [3], 533 and 960.

(Values after ChEMBL document CHEMBL1135916, “Design, synthesis, and structure-activity relationship of pyridyl imidazolidinones: a novel class of potent and selective human enterovirus 71 inhibitors” (J Med Chem, 2002).)
